The values below are quoted from earlier work in PMC10776879, “In vitro screening of topical formulation excipients for epithelial toxicity in cancerous and non-cancerous cell lines” (EXCLI Journal, 2023).

The conditions of this series: Table 1, physicochemical information of the excipients, source not given; cited from earlier work.

Consider “Propylene glycol dicaprylocaprate [Labrafac®]”, for which the HLB is 1.
